Consider three molecules from US8921410B2, “Nicotinic acetylcholine receptor sub-type selective amides of diazabicycloalkanes” (Targacept, Inc., priority 2006, dated 2014).

The chains behind the UniProt entries cited, without tags or fusion partners. Residues count along the entry.
UniProt Q05941, 23-502 limits assumed: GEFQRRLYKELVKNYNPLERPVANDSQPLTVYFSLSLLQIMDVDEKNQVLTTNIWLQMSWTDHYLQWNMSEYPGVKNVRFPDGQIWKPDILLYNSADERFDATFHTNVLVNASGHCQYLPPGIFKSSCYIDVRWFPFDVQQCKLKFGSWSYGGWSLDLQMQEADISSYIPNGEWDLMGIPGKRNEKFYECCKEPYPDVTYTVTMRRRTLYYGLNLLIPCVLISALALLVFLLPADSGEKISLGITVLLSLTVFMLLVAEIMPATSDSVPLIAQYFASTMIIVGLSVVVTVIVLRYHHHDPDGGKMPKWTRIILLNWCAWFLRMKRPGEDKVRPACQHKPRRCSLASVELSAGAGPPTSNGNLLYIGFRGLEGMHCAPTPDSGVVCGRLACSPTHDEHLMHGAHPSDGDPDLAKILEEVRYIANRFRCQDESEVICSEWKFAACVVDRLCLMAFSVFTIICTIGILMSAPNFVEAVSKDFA
UniProt P09483, 31-630 limits assumed: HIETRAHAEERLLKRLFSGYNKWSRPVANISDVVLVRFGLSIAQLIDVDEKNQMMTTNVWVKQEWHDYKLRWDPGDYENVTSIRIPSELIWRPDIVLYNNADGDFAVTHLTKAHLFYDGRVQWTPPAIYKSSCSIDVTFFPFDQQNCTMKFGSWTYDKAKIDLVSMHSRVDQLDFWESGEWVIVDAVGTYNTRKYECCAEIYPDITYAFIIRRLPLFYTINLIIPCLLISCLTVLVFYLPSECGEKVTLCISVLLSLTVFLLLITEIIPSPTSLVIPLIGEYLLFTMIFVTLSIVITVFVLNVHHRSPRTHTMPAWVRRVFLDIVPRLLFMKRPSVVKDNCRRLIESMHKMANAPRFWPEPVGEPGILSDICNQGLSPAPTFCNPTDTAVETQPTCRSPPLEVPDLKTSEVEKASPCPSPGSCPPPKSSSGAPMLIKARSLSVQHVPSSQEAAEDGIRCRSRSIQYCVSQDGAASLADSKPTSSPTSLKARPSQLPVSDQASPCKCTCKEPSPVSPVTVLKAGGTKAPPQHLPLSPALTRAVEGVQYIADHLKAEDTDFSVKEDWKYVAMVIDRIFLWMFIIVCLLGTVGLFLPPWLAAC
UniProt P12390, 25-500 limits assumed: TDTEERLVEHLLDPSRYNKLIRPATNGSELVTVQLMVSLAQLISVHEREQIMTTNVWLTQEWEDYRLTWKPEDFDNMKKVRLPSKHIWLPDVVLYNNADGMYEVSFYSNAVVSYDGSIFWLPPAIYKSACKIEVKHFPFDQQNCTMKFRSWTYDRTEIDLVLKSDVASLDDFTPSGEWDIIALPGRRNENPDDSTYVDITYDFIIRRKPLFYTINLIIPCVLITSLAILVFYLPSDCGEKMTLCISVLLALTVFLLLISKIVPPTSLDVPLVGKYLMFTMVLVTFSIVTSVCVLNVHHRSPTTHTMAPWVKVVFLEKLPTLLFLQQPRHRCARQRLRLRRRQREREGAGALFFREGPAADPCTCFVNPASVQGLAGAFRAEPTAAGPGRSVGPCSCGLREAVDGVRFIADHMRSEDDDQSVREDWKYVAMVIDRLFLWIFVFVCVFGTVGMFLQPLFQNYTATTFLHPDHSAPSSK
UniProt P17787, 26-502 limits assumed: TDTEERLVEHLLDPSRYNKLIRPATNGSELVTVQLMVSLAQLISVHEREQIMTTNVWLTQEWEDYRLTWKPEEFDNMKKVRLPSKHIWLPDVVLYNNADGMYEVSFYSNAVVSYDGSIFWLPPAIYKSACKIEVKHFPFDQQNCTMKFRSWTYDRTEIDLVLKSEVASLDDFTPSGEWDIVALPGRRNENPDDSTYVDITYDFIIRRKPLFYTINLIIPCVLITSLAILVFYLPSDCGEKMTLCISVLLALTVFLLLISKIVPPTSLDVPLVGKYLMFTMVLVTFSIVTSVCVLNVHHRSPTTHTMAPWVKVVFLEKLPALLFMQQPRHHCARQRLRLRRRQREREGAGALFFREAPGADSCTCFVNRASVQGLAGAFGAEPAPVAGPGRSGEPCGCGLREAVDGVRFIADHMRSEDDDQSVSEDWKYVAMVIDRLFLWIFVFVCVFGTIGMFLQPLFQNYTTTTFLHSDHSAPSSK
UniProt P43681, 29-627 limits assumed: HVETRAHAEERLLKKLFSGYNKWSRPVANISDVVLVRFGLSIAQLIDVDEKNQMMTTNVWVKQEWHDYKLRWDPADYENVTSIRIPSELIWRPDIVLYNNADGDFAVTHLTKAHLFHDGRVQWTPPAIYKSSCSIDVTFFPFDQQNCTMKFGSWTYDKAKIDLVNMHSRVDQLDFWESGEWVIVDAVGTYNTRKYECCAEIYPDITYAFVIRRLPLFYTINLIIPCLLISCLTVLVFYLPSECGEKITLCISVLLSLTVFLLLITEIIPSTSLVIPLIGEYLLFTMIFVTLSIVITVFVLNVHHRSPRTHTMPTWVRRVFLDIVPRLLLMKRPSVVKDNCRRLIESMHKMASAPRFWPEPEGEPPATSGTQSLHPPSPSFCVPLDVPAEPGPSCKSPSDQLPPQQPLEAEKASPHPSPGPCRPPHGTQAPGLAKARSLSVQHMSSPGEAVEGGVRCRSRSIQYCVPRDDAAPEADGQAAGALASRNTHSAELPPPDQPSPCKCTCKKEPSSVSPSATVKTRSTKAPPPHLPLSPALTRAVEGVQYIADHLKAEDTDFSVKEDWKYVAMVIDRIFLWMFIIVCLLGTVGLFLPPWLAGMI

Read-outs that look alike come from different tables or passages of the source.

The target in one assay is α7 nAChR subtype (Rattus norvegicus (Rat), UniProt Q05941). Kind of assay: Radioligand ([3H]MLA) binding at α7 nAChR, rat hippocampus membranes.
A further assay addresses rat α4β2 nAChR subtype (Rattus norvegicus (Rat), UniProt P09483+P12390). The experiment in a line: Radioligand ([3H]nicotine) binding at α4β2 nAChR, rat cortex membranes. The following applies: read-out: Rat α4β2 Ki, [3H]nicotine 5 nM.
Another assay addresses human α4β2 nAChR subtype (Homo sapiens (Human), UniProt P17787+P43681). The experiment in a line: Radioligand ([3H]nicotine) binding at α4β2 nAChR, SH-EP1/human α4β2 clonal cell membranes. To be noted: read-out: Human α4β2 Ki, [3H]nicotine 5 nM.
Setting [1] is: did not bind sufficiently in HTS at α7 to warrant Ki determination.

Turning to `NS(=O)(=O)c1coc(C(=O)N2CC3CNCC(C3)C2)c1`, the “α7 high through-put screening outcome (Ki not determined)” value at α7 nAChR subtype is recorded as “ND; failed HTS”. In addition, the Ki (in general, a measure of affinity in units of concentration, obtained from inhibition or displacement) on rat α4β2 nAChR subtype came out at 0.086 µM; on human α4β2 nAChR subtype it was 0.062 µM.

As to `NS(=O)(=O)c1coc(C(=O)N2CC3CNCC3C2)c1` (stereo not shown), the “α7 high through-put screening outcome (Ki not determined)” value at α7 nAChR subtype (setting [1]) is listed as “ND; failed HTS”. The Ki on rat α4β2 nAChR subtype amounted to 0.031 µM; on human α4β2 nAChR subtype, 0.028 µM.

Consider `O=C(c1coc(C(F)F)c1)N1CC2CNCC2C1` (stereo not shown), for which the “α7 high through-put screening outcome (Ki not determined)” value at α7 nAChR subtype (setting [1]) is “ND; failed HTS”.
